Patent US8957024B2, “Composition and methods for reducing opioid-induced pruritus” (priority 2011, dated 2015)
“Also recorded” adds a separate entry of the source.

By UniProt entry, the sequences of proteins in these tests, tags left out. Residues count along the entry.
UniProt P42866, whole entry: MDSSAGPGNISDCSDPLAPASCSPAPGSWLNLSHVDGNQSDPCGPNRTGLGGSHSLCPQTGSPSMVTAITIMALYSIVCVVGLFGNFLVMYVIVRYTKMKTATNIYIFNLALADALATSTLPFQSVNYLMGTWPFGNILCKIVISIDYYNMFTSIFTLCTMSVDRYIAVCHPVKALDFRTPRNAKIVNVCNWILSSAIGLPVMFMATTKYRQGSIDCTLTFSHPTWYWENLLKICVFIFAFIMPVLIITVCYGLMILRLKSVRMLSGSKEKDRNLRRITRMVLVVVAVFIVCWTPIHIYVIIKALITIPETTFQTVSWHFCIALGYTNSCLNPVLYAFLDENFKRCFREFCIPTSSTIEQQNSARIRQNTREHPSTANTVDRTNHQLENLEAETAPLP
UniProt P42866, 1-393 isoform P42866-9: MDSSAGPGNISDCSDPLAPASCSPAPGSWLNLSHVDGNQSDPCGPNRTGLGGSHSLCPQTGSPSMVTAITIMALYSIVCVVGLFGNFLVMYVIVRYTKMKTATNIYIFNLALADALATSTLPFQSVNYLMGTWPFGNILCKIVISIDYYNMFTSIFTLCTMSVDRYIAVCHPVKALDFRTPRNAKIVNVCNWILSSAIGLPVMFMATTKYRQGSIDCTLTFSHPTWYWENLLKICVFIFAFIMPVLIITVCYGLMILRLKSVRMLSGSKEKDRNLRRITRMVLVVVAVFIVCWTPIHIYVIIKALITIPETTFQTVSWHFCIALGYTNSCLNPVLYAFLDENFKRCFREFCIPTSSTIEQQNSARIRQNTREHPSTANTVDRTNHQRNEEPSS

Key:
[1] = molecular target: T1, HA-MOR1 (Mus musculus, UniProt P42866); assay: Receptor internalization assay (ELISA, immunofluorescence staining) in HEK 293 cells: MOR1; assay type: cell-based; settings: HEK 293 cells expressing MOR1 only, or MOR1 and GRPR; agonist 1 μM
T1 construct: expressed in transfected cells

[2] = molecular target: T2, HA-MOR1D (Mus musculus, UniProt P42866); assay: Receptor internalization assay (ELISA, immunofluorescence staining) in HEK 293 cells: MOR1D; assay type: cell-based; settings: HEK 293 cells expressing MOR1D, or MOR1D and GRPR; agonist 1 μM
T2 construct: expressed in transfected cells

CN1CC[C@]23c4c5ccc(O)c4O[C@H]2[C@@H](O)C=C[C@H]3[C@H]1C5 [morphine]
agonist-induced MOR1 internalization [1]: no internalization of HA-MOR1; also recorded: but not HA-MOR1
agonist-induced MOR1D internalization [2]: significant MOR1D internalization; also recorded: endocytosis of HA-MOR1D
